Experimental findings from patent US20030148921 are described below.

For data set [1], the system named is galactosidase-PAR2 (GPAR2) fusion protein.
Data set [2] concerns galactosidase-PAR1 (GPAR1) fusion protein [β-galactosidase: P00722].
Data set [3] has as its system GPAR3^K37S activation site mutant fusion protein.
In data set [4] the test system is galactosidase-PAR3 (GPAR3) fusion protein.
For data set [5], the system named is activation site mutant fusion protein GPAR1^R45S.
For data set [6], the system named is GPAR2^R34S activation site mutant fusion protein.
In data set [7] the test system is galactosidase-PAR4 (GPAR4) fusion protein.
The test system of data set [8] is GPAR4^R47S activation site mutant fusion protein.

In the case of human high-molecular-mass urokinase, the β-Galactosidase release rate (mmol β-Galactosidase/(molProtease * min)) in data set [1], in data set [2], in data set [3], in data set [4], in data set [5] and in data set [6] was no more than 0.01 throughout. The β-Galactosidase release rate (mmol β-Galactosidase/(molProtease * min)) in data set [7] and in data set [8] was no more than 0.01 throughout.
Regarding bovine type II chymotrypsin, the β-Galactosidase release rate (mmol β-Galactosidase/(molProtease * min)) is 5.6 in data set [1]; 58 in data set [2]; 4.5 in data set [3]; 4.7 in data set [4]; 78 in data set [5]; 4.3 in data set [6]. Also, the values for the β-Galactosidase release rate (mmol β-Galactosidase/(molProtease * min)) in data set [7] and in data set [8] were 3.4 and 8.4, respectively.
Take human thrombin: the β-Galactosidase release rate (mmol β-Galactosidase/(molProtease * min)) in data set [1] is 0.01; in data set [2] it was 2600; in data set [3], 3.4; in data set [4], 410; in data set [5], 0.07; in data set [6], no more than 0.01. In addition, the β-Galactosidase release rate (mmol β-Galactosidase/(molProtease * min)) was found to be 4.3 in data set [7] and 0.02 in data set [8]. In addition, the “initial rate, against GPAR1” value in data set [4] was “about six times lower than for GPAR1”. Moreover, the “amount of thrombin needed to elicit a response, against GPAR1” value in data set [5] is recorded as “More than 30000 times more thrombin was needed to elicit a response with GPAR1^R45S”.
